Laboratory results taken from US7985736B2, “High throughput screen utilizing newly discovered intramolecular neuronal calcium channel interactions to discover new analgesics” (The John Hopkins University, priority 2004, dated 2011).

Amino acid sequences for entries named in this document (tags omitted).
UniProt P08172, whole entry S286A/T287A/S288A/S290A/T307A/S309A/T310A/S311A: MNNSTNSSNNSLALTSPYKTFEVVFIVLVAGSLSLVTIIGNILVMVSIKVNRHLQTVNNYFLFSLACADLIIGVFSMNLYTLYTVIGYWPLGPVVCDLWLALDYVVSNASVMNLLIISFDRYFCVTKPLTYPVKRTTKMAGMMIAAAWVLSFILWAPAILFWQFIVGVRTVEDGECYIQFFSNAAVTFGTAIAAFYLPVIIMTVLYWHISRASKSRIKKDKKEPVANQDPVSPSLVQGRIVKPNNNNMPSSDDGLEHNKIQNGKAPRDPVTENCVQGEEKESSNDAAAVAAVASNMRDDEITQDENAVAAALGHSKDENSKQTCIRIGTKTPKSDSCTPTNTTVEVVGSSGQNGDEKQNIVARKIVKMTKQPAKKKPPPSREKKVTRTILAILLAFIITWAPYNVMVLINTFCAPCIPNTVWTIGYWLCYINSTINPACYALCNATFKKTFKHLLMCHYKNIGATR

Molecular target: T1, m2R (engineered human m2 muscarinic acetylcholine receptor) (Homo sapiens, UniProt P08172, S286A/S288A/S290A/S309A/S311A/T287A/T307A/T310A)
T1 construct: expressed in transfected cells; host or cells: HEK293
Assay: Receptor-mediated G protein modulation of N-type channels by carbachol via engineered m2R in HEK293 cells
Type: cell-based

C[N+](C)(C)CCOC(N)=O [carbachol]
G protein modulation of channels by bath-applied carbachol (channels coexpressed with m2R): rapidly induced marked G protein modulation of channels
G/Q depression by carbachol alone (without NTB peptide, carbachol application for 60 min): produced no G/Q depression
